# Assay results reported in article PMC12350791.
# Sequences of proteins named here, by UniProt entry; tags and fusion partners are left off. A change or cut given only in a name is not applied to a line headed by its entry.
# UniProt Q96JB5: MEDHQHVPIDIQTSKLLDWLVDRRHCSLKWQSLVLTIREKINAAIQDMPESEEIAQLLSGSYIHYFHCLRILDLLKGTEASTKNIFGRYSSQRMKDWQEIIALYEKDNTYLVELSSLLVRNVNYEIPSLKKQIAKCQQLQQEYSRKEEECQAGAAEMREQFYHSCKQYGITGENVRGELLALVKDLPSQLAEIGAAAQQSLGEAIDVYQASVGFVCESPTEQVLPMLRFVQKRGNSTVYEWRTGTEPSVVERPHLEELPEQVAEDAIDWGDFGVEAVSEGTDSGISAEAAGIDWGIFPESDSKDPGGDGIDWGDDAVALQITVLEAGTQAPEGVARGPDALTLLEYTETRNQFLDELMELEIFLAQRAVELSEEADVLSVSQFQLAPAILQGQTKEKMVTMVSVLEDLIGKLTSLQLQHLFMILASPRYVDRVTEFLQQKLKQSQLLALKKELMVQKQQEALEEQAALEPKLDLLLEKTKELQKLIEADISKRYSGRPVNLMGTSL
# The other results are listed elsewhere or left out.
# Biological target: CDK5RAP3 (UniProt Q96JB5)
# Assay: cross-linking mass spectrometry
# Conditions: DSBSO, in cells or nuclear extract, not told apart
substance,measurement,value
"UFL1, O94874",cross-linked residues,K130 - K440
